Each structure is given as a SMILES string.

By UniProt entry, the sequences of proteins in these tests, tags left out.
UniProt Q9NYY3, whole entry: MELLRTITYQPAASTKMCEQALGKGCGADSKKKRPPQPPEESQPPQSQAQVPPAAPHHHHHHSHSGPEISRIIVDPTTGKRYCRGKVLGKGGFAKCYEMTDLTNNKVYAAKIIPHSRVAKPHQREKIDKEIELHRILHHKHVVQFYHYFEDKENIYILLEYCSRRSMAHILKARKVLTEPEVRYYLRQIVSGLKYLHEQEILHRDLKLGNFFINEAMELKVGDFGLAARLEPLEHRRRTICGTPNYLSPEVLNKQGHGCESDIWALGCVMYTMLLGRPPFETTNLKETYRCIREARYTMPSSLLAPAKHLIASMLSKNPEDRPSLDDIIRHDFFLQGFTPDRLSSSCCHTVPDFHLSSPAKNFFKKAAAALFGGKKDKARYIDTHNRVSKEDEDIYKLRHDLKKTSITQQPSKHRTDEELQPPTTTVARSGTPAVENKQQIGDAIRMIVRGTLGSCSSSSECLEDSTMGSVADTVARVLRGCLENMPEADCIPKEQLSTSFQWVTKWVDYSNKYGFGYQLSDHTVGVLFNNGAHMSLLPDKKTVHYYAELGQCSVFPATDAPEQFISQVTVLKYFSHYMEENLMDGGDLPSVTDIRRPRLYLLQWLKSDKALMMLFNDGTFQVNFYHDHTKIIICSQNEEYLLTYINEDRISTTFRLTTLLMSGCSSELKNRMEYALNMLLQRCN

The target in this assay is PLK2 (Homo sapiens, UniProt Q9NYY3). Put plainly: LanthaScreen Eu kinase binding assay (FRET). Conditions: duplicate. In general terms: TR-FRET usually uses a lanthanide donor and a delayed reading to cut background.

The term IC50 denotes the concentration at which inhibition is half-maximal. A low value points to inhibition by little substance. `N#CC1=C(N)Oc2[nH]nc(-c3ccncc3)c2C1c1ccc(O)c(O)c1` (centres unmarked) returned an IC50 of 774 nM. Consider `COc1ccc(-c2n[nH]c3c2C(c2ccccc2O)C(C#N)=C(N)O3)cc1` (centres unmarked), for which the IC50 worked out at 584 nM.

Values taken from paper PMC12801292.
